In ChEMBL document CHEMBL1122589 (J Med Chem, 1984):

Tested on: Nucleic Acid
Assay: Binding constant for DNA by ethidium bromide displacement
Type: nucleic-acid assay

SMILES: CS(=O)(=O)Nc1ccc(Nc2c3ccccc3nc3ccccc23)cc1
- Log K: 6.2
